Target: Transient receptor potential cation channel subfamily V member 1 (Rattus norvegicus, UniProt O35433)

Protein sequences, listed by entry. Tags and fused reporters are not part of them.
UniProt O35433, whole entry: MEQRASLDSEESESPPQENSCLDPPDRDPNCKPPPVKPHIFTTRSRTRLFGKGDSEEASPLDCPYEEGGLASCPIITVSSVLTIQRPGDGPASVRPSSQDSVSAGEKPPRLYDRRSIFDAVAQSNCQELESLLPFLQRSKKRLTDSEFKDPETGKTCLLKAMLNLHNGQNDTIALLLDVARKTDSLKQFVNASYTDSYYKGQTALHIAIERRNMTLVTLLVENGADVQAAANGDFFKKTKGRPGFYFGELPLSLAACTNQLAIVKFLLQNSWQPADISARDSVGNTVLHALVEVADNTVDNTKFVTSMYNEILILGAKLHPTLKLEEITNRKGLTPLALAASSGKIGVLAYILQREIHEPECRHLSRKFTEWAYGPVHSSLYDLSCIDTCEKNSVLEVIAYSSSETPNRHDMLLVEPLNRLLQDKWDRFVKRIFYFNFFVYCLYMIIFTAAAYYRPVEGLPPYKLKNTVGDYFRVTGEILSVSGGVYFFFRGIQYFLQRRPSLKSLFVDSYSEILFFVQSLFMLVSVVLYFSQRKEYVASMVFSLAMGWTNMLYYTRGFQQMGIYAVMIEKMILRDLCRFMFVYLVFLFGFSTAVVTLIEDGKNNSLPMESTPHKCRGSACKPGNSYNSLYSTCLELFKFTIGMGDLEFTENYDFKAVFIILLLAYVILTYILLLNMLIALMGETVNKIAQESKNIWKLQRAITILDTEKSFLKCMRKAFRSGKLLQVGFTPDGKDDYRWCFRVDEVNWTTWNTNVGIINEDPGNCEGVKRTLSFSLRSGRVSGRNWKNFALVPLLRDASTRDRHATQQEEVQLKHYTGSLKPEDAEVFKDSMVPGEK

CC(C)(C)c1ccc(CNC(=S)NCc2ccc(NS(C)(=O)=O)cc2)cc1 [3-[(4-tert-butylphenyl)methyl]-1-[(4-methanesulfonamidophenyl)methyl]thiourea]
Ki: 53.9 nM
